The target of the experiment is T1, h5-LOX (Homo sapiens, UniProt P09917).
T1 sequence (P09917 1-674): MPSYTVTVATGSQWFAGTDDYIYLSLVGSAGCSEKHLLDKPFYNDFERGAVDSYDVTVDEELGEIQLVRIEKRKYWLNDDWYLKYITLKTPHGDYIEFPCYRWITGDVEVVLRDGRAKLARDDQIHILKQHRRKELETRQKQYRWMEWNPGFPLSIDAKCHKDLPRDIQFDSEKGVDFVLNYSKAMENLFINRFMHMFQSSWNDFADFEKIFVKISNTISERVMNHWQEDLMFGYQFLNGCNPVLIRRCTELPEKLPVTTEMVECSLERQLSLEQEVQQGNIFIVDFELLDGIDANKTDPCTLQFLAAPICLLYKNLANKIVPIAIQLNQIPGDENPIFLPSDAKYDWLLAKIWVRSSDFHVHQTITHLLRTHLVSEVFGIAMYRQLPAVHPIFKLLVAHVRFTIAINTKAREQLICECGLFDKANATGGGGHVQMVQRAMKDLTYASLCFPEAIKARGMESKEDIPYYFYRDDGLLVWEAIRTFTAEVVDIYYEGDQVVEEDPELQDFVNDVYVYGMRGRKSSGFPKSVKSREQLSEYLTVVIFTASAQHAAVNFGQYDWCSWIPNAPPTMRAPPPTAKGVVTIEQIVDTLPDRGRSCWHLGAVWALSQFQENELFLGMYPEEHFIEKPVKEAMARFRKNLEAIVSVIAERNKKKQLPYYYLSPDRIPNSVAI
In words: Selectivity assay. The experiment is classed as biochemical. The following applies: tested at 20 µM inhibitor concentration.

Each structure is given as a SMILES string.

As for `Cc1ccc(O)c(-c2cc(-c3ccccc3C)[nH]n2)c1` [Compound 99089], the “selectivity for h12/15-LOX versus h5-LOX” value was “greater than 30 fold”.

These data come from article PMC4778748 (Bioorganic & medicinal chemistry, 2016).
